{"sequences": {"note": "Chains of the proteins cited; added tags and fusions are not shown.", "UniProt P28223, whole entry, looked up": "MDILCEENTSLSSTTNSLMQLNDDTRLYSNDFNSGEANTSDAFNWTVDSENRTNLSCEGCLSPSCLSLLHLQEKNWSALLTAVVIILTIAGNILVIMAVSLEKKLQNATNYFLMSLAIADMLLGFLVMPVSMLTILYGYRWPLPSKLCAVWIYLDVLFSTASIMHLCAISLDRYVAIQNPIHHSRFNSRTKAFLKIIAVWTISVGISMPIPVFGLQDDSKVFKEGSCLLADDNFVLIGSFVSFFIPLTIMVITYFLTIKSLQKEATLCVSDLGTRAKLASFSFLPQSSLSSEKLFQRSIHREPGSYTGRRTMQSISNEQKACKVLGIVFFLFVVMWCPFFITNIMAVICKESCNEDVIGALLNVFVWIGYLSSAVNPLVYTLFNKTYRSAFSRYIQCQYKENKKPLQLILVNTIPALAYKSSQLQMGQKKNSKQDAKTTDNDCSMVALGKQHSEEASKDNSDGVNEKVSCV"}, "source": "PubChem BioAssay (Tox21)", "key": {"[1]": {"target": "5-hydroxytryptamine receptor 2A (Homo sapiens) (UniProt P28223)", "experiment": "5-hydroxytryptamine receptor 2A (HTR2A) small molecule agonists, cell-based qHTS assay (AID 1963587); further: nearly all actives have a fitted effect of over 30% in size", "method_in_brief": "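Kinetic calcium-flux fluorescence (2 min, 1 sec intervals) after compound addition in agonist mode. HTR2A-CHO cells were cultured 18 h, then dye-loaded 1 h at 37 C.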"}, "[2]": {"target": "5-hydroxytryptamine receptor 2A (Homo sapiens) (UniProt P28223)", "experiment": "5-hydroxytryptamine receptor 2A (HTR2A) small molecule antagonists, cell-based qHTS assay (AID 1963586); further: nearly all actives have a fitted effect of over 45% in size", "method_in_brief": "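CHO cells stably expressing human HTR2A were plated for 18 h at 37 C, then loaded with calcium dye for 1 h. Compounds were preincubated 5 min at room temperature before DOI (4 nM solution) was added. Kinetic fluorescence was read for 3 min.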"}}, "note": "This is a selection; strong and weak results do not stand in their true shares. Records with an inconclusive call do not appear. Activity calls are given as the source filed them. The call rests on the fitted dose curve. Potency means the concentration at half of the fitted maximal effect."}
{"molecule": "O=C1NCN(c2ccccc2)C12CCN(CCCOc1ccc(F)cc1)CC2", "values": [{"measurement": "Potency", "setting": "[1]", "value": "active: 8.49 µM"}]}
{"molecule": "CC(Cc1ccc(O)cc1)NCC(O)c1cc(O)cc(O)c1", "note": "(stereo not given)", "values": [{"measurement": "Potency", "setting": "[2]", "value": "inactive"}, {"measurement": "Potency", "setting": "[1]", "value": "inactive"}]}
{"molecule": "COc1ccc(OC)c(CC(C)N)c1", "note": "(stereo not given)", "values": [{"measurement": "Potency", "setting": "[2]", "value": "active: 0.0716 µM"}, {"measurement": "Potency", "setting": "[1]", "value": "active: 0.0662 µM"}]}
